This assay has as its target Norepinephrine (NE) uptake into rat brain synaptosome (hippocampus) (Rattus norvegicus, UniProt Q63380). The experiment in a line: Inhibitory activity on norepinephrine (NE) uptake into rat brain synaptosome. Particulars: read-out: 50% inhibitory concentration, tritium-labeled NE 12 nM uptake, 10 min at 37° C., tested form: HCl. The protocol: Pharmacological Test 2 Evaluation of Inhibitory Activity of Test Compound on Norepinephrine (NE) Uptake into Rat Brain Synaptosome
Male Wistar rats were decapitated and the brains were removed and the hippocampi were dissected. The separated hippocampi were homogenized in 20 volumes as weight of 0.32 M sucrose solution by a Potter-type homogenizer. The homogenate was centrifuged at 1000 g at 4° C. for 10 minutes, and the supernatant was then centrifuged at 20000 g at 4° C. for 20 minutes. The pellet was resuspended in incubation buffer (20 mM HEPES buffer (pH 7.4)) containing 10 mM glucose, 145 mM sodium chloride, 4.5 mM potassium chloride, 1.2 mM magnesium chloride, and 1.5 mM calcium chloride) and used as crude synaptosome fraction. […]
Solvent, unlabeled NE, and serial diluted test compounds were added to each well, and synaptosome fraction of 1/10 volume of the final volume were added. […] After washing the filter with cold physiological saline and drying up, Microscint-0 (Perkin-Elmer) was added, and remained radioactivity on the filter was measured.
The total uptake activity with only solvent was determined as 100%, and the nonspecific uptake activity with unlabeled NE (final concentration of 10 μM) was determined as 0%. The 50% inhibitory concentrations were calculated based on the concentrations of the test compounds and their inhibitory activities.

The chains behind the UniProt entries cited, without tags or fusion partners. Residues count along the entry.
UniProt Q63380, 1-617: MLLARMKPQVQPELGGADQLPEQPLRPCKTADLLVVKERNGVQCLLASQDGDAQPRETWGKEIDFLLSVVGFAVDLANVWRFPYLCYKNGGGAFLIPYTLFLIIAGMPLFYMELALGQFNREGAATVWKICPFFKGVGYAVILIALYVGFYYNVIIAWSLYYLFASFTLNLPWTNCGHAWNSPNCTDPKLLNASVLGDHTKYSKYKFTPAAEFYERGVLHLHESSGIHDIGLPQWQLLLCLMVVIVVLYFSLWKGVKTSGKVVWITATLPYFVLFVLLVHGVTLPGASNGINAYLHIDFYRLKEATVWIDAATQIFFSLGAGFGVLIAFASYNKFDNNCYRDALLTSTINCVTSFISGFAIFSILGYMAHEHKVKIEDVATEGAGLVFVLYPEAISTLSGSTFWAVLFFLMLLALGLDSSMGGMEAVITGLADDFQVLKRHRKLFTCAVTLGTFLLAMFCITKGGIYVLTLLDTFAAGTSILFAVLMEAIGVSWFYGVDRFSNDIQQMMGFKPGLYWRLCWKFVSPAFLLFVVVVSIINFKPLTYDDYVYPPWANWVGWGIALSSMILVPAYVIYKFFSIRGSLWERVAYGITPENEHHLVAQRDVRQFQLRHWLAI

Consider 1 compound from patent US10000450B2, “N,N-substituted 3-aminopyrrolidine compounds useful as monoamines reuptake inhibitors” (OTSUKA PHARMACEUTICAL CO., LTD., priority 2005, dated 2018).

Take `Fc1ccc(N(CC2CCOCC2)[C@H]2CCNC2)cc1Cl`: the IC50 is 0.5 nM.
